From ChEMBL document CHEMBL4406811, “Optimization and Mechanistic Characterization of Pyridopyrimidine Inhibitors of Bacterial Biotin Carboxylase” (J Med Chem, 2019)
Converted amounts (≈) assume the structure as drawn.

Legend:
Type in all cases: functional
Acinetobacter baumannii = assay: Antibacterial activity against wild-type Acinetobacter baumannii ATCC 19606 measured after 18 to 20 hrs by broth microdilution method; details: ATCC 19606 = CIP 70.34 = JCM 6841
Escherichia coli [1] = assay: Antibacterial activity against Escherichia coli DM4100 measured after 18 to 20 hrs by broth microdilution method
Klebsiella pneumoniae = assay: Antibacterial activity against Klebsiella pneumoniae ATCC 43816 measured after 18 to 20 hrs by broth microdilution method
Pseudomonas aeruginosa = assay: Antibacterial activity against Pseudomonas aeruginosa PAO1 measured after 18 to 20 hrs by broth microdilution method
Escherichia coli [2] = assay: Antibacterial activity against Escherichia coli DM4100 measured after 18 to 20 hrs in presence of permeabilizing agent PMBN by broth microdilution method

Compound: Nc1ncc2cc(-c3c(Cl)cccc3-c3cccnc3)c(N)nc2n1
- MIC (Acinetobacter baumannii): > 256 µg/mL
- MIC (Escherichia coli [1]): 8 µg/mL (≈ 22.9 µM)
- MIC (Klebsiella pneumoniae): 32 µg/mL (≈ 91.7 µM)
- MIC (Pseudomonas aeruginosa): > 256 µg/mL
- MIC (Escherichia coli [2]): 0.5 µg/mL

Compound: Nc1ncc2cc(-c3c(Cl)cccc3Cl)c(N3C[C@@H]4[C@@H](N)[C@@H]4C3)nc2n1
- MIC (Acinetobacter baumannii): 128 µg/mL (≈ 331 µM)

Compound: COc1ccc(-c2cccc(Cl)c2-c2cc3cnc(N)nc3nc2N)cn1
- MIC (Klebsiella pneumoniae): > 16 µg/mL

Compound: Nc1ncc2cc(-c3c(Cl)cccc3Cl)c(N)nc2n1
- MIC (Acinetobacter baumannii): 256 µg/mL (≈ 836 µM)
- MIC (Pseudomonas aeruginosa): > 256 µg/mL

Compound: NCC1(O)CCN(c2nc3nc(N)ncc3cc2-c2c(Cl)cccc2Cl)C1 (stereo unspecified)
- MIC (Acinetobacter baumannii): > 256 µg/mL
- MIC (Escherichia coli [1]): 64 µg/mL (≈ 158 µM)
- MIC (Klebsiella pneumoniae): > 256 µg/mL
- MIC (Pseudomonas aeruginosa): > 256 µg/mL

Compound: Nc1ncc2cc(-c3c(Cl)cccc3Cl)c(N3CCC(N)(CO)C3)nc2n1 (stereo unspecified)
- MIC (Escherichia coli [1]): 16 µg/mL (≈ 39.5 µM)
- MIC (Escherichia coli [2]): 8 µg/mL

Compound: NCC1CCN(c2nc3nc(N)ncc3cc2-c2c(Cl)cccc2Cl)C1 (stereo unspecified)
- MIC (Escherichia coli [1]): 16 µg/mL (≈ 41.1 µM)
- MIC (Escherichia coli [2]): 2 µg/mL

Compound: Nc1ncc2cc(-c3ccccc3-c3ccccc3)c(N)nc2n1
- MIC (Acinetobacter baumannii): > 256 µg/mL
- MIC (Klebsiella pneumoniae): > 256 µg/mL

Compound: NCC1CCN(c2nc3nc(N)ncc3cc2-c2c(Cl)cccc2Cl)CC1
- MIC (Acinetobacter baumannii): > 128 µg/mL
- MIC (Escherichia coli [1]): 32 µg/mL (≈ 79.3 µM)
- MIC (Klebsiella pneumoniae): 128 µg/mL (≈ 317 µM)
- MIC (Pseudomonas aeruginosa): > 128 µg/mL
- MIC (Escherichia coli [2]): 4 µg/mL

Compound: Nc1ncc2cc(-c3c(Cl)cccc3Cl)c(N3CCC(CO)C3)nc2n1 (stereo unspecified)
- MIC (Acinetobacter baumannii): > 64 µg/mL
- MIC (Klebsiella pneumoniae): > 64 µg/mL
